Results: ChEMBL document CHEMBL1136834 (Bioorg Med Chem Lett, 2009)

What was measured:
CHO [1] = experiment: Ratio of Ki for human delta opioid receptor to Ki for human kappa opioid receptor expressed in CHO cells; assay type: cell-based
CHO [2] = experiment: Ratio of Ki for human mu opioid receptor to Ki for human kappa opioid receptor expressed in CHO cells; assay type: cell-based

| Compound | Ratio Ki (CHO [1]) | Ratio Ki (CHO [2]) |
| --- | --- | --- |
| C[C@H]1C2Cc3ccc4[nH]nnc4c3[C@@]1(C)CCN2CC1CC1 | 200 | 6 |
| C[C@H]1C2Cc3cc4nc[nH]c4cc3[C@@]1(C)CCN2CC1CC1 | 81 | 5 |
| Cc1nc2cc3c(cc2[nH]1)[C@@]1(C)CCN(CC2CC2)C(C3)[C@@H]1C | 360 | 15 |
| C[C@H]1C2Cc3cc4nn[nH]c4cc3[C@@]1(C)CCN2CC1CC1 | 63 | 12 |
